Columns and labels:
Assay in all cases: DiscoverX scanMAX binding assay
Settings in all cases: 1 μM
YSK4 = YSK4 (Homo sapiens, UniProt Q56UN5)
PIKfyve = PIKfyve (Homo sapiens, UniProt Q9Y2I7)
MEK4 = MEK4 (Homo sapiens, UniProt P45985)
RIPK5 = RIPK5 (Homo sapiens, UniProt Q6XUX3)
PIP5K1C = PIP5K1C (Homo sapiens, UniProt O60331)
PRKD3 = PRKD3 (Homo sapiens, UniProt O94806)
MYLK4 = MYLK4 (Homo sapiens, UniProt Q86YV6)

Chains of the proteins cited; added tags and fusions are not shown.
UniProt Q56UN5, whole entry: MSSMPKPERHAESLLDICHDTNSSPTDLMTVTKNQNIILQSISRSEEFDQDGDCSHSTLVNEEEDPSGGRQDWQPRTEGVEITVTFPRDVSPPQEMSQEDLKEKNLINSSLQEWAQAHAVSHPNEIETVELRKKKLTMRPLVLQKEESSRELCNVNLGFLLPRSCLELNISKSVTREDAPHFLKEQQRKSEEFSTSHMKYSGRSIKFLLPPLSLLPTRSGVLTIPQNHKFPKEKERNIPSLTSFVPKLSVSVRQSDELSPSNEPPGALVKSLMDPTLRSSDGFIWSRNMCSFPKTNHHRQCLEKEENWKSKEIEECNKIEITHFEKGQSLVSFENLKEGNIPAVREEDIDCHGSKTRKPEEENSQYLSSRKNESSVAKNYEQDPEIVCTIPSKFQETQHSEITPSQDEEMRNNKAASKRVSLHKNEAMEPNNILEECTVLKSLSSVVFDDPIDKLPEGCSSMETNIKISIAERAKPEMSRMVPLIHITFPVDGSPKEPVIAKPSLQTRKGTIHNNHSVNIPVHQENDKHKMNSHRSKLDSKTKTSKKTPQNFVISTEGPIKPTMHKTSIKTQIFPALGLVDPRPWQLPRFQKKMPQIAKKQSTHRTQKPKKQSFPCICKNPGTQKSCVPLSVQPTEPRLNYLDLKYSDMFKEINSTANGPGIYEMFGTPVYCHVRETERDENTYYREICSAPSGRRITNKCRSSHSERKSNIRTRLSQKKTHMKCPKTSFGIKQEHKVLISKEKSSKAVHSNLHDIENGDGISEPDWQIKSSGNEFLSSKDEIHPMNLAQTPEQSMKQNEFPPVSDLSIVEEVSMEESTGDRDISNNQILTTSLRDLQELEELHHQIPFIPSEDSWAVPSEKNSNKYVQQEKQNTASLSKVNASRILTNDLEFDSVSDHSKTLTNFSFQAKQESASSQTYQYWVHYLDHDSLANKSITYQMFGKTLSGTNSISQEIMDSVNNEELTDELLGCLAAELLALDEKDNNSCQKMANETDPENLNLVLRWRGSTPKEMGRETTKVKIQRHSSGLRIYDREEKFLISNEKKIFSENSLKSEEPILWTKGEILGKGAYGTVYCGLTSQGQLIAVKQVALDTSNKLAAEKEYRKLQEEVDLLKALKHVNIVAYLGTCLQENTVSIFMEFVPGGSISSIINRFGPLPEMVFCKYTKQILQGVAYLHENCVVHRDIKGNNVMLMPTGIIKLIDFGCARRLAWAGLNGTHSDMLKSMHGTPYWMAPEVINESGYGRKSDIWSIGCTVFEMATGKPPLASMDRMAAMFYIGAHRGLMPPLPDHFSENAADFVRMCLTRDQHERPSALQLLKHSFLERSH
UniProt Q9Y2I7, whole entry: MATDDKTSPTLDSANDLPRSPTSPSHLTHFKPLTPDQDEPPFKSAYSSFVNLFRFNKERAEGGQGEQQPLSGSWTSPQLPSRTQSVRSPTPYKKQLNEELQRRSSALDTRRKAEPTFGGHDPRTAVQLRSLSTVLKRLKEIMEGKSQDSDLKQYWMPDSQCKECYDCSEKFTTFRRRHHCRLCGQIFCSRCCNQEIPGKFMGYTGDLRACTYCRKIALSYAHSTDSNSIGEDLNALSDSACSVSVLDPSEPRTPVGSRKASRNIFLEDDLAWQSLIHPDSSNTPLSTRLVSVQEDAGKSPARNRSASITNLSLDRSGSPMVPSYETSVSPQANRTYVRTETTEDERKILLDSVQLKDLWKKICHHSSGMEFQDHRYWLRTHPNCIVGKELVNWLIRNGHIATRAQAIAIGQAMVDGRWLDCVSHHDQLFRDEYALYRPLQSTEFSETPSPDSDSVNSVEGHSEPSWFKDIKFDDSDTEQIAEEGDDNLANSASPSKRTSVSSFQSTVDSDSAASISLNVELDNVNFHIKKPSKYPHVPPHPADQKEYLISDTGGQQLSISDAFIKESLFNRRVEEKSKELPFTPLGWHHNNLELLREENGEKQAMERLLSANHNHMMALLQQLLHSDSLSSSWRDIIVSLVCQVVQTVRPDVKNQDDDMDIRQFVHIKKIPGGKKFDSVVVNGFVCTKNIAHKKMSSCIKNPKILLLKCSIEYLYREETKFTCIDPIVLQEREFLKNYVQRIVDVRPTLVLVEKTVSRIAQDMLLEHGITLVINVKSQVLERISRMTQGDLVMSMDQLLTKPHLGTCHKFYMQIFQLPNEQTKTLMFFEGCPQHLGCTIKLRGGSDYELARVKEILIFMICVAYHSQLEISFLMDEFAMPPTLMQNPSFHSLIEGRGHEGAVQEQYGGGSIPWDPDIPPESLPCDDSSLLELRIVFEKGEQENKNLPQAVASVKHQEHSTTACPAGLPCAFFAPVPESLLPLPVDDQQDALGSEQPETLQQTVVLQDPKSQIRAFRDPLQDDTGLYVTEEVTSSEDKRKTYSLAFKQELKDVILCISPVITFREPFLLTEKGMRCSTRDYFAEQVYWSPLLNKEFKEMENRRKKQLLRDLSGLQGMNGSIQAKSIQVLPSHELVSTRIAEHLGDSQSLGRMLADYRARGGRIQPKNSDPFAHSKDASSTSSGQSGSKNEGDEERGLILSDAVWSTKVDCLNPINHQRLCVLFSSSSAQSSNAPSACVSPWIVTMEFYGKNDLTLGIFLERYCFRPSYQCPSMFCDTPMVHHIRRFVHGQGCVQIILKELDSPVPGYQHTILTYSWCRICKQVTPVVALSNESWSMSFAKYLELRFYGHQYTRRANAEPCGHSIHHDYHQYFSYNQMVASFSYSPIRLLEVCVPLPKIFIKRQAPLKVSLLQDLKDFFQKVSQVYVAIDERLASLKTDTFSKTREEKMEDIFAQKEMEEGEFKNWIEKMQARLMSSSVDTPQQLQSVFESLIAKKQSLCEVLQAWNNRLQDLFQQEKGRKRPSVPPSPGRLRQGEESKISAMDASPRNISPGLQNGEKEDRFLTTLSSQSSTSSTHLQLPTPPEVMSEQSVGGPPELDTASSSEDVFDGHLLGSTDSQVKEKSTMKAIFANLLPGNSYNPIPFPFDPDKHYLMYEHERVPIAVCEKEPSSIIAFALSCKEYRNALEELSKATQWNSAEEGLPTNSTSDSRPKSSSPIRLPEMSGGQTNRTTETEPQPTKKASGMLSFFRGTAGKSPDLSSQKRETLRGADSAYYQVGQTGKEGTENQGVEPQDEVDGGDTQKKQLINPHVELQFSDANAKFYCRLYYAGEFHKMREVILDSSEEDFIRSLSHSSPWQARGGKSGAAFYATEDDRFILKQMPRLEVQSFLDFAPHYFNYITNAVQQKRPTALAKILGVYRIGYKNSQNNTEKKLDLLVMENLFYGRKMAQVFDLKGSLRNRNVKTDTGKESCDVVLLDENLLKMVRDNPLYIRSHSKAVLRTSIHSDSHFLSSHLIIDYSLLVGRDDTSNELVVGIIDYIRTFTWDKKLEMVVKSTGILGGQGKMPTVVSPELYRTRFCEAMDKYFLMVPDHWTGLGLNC
UniProt Q6XUX3, whole entry: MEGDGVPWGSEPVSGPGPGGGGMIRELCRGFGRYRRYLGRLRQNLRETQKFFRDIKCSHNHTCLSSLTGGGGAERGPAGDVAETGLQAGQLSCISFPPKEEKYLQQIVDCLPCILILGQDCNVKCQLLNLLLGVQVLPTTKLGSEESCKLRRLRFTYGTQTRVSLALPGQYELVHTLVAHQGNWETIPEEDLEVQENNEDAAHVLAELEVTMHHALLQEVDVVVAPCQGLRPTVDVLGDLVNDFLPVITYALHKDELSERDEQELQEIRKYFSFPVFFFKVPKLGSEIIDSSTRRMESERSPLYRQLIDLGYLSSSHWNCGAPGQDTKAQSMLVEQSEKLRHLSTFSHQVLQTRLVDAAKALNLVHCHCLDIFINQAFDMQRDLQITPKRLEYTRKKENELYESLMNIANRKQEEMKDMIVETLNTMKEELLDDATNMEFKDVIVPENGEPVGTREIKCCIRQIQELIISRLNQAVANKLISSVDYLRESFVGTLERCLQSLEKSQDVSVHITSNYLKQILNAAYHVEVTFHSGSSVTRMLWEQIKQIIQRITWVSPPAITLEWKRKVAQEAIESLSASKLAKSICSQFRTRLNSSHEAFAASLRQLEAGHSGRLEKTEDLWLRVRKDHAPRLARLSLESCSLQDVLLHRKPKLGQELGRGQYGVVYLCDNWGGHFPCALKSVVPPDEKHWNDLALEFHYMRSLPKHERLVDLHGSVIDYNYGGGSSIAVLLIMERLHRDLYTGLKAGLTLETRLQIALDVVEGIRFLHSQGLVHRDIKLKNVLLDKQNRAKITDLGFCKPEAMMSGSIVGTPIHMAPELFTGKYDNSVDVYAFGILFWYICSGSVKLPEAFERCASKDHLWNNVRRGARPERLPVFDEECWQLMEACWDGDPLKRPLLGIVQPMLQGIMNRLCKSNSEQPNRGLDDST
UniProt O60331, whole entry: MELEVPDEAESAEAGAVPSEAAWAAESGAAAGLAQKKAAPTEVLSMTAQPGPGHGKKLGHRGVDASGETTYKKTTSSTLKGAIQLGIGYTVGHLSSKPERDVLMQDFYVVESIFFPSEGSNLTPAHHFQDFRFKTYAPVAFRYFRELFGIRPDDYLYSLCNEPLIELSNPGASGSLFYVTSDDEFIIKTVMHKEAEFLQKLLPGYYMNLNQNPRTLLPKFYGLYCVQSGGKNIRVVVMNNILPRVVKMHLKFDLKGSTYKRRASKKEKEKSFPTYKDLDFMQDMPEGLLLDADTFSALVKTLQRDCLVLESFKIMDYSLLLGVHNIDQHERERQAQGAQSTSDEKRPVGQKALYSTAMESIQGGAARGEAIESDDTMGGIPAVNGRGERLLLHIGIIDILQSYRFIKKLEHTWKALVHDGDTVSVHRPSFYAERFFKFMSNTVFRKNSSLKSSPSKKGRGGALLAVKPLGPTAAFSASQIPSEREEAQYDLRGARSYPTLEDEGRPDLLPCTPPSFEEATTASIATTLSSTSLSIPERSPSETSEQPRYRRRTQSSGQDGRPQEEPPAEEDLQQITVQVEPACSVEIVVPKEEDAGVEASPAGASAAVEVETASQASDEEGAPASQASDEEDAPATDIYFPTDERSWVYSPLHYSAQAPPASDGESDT
UniProt O94806, whole entry: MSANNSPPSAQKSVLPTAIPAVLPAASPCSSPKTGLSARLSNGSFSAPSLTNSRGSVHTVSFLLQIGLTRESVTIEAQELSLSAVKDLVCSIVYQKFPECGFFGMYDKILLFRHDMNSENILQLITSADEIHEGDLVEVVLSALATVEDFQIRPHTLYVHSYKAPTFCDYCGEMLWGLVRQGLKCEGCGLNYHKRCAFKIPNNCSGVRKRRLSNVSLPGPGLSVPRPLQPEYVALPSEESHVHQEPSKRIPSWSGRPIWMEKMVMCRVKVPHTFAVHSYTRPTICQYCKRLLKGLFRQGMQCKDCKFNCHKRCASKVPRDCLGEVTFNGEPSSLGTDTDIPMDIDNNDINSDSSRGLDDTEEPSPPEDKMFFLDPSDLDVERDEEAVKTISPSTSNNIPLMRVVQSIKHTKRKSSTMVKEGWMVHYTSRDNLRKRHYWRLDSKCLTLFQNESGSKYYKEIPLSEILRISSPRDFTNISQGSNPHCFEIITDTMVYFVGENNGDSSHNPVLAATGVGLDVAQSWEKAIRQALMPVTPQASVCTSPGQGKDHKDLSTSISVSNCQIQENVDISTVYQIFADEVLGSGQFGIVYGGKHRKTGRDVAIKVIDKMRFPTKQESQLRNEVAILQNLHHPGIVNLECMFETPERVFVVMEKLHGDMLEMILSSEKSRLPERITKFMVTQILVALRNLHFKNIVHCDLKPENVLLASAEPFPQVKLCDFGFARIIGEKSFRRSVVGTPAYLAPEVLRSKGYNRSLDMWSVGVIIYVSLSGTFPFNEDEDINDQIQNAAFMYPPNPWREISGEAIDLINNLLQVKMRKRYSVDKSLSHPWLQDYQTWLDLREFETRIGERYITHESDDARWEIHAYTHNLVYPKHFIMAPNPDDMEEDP
UniProt Q86YV6, whole entry: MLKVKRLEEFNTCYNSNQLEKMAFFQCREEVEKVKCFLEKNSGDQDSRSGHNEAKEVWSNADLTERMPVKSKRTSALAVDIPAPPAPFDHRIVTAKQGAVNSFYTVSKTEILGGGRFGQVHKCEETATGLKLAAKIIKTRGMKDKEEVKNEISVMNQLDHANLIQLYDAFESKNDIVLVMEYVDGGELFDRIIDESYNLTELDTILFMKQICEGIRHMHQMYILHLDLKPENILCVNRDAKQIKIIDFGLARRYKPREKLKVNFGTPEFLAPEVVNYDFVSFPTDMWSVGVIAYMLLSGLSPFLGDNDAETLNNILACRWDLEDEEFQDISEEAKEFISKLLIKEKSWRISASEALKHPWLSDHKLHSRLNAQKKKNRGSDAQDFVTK

For `CCC(O)(C#Cc1ccc2[nH]c3c(c2c1)-c1nc(N)ncc1CCC3)CC`, the “YSK4 % control at 1000nM / DiscoverX PoC value” (YSK4) was 1.1 % control, the “PIKFYVE % control at 1000nM / DiscoverX PoC value” (PIKfyve) was 0 % control and the “MEK4 (MKK4) % control at 1000nM / DiscoverX PoC value” (MEK4) was 3.5 % control. For the same compound, the “RIPK5 % control at 1000nM / DiscoverX PoC value” (RIPK5) was 4.1 % control, the “PIP5K1C % control at 1000nM / DiscoverX PoC value” (PIP5K1C) was 0 % control and the “PRKD3 (PKD3) % control at 1000nM / DiscoverX PoC value” (PRKD3) was 0 % control. For the same compound, the “MYLK4 % control at 1000nM / DiscoverX PoC value” (MYLK4) was 2.4 % control.

— publication PMC10104807, “Modulation of tau tubulin kinases (TTBK1 and TTBK2) impacts ciliogenesis” (Scientific Reports, 2023)
